By UniProt entry, the sequences of proteins in these tests, tags left out. Where a name states a change or a piece, a line headed by the entry shows the natural chain unless it says otherwise.
UniProt Q06187: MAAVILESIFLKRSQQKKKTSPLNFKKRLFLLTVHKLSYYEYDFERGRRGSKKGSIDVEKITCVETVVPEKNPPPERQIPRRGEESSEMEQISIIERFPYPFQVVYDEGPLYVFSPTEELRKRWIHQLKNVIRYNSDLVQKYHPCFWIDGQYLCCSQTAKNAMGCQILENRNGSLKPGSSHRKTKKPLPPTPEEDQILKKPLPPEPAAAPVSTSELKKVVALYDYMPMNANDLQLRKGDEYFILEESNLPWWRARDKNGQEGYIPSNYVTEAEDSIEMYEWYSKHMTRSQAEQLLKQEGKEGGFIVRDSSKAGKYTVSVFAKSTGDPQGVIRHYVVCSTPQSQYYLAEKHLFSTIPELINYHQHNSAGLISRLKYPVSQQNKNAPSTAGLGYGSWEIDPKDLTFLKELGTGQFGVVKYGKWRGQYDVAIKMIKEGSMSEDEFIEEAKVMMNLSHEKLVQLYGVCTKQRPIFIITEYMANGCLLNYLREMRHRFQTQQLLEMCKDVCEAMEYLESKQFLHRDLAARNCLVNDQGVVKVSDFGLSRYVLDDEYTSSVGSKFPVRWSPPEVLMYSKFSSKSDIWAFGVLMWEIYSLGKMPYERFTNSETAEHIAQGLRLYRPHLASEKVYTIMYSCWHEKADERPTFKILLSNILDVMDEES

In ChEMBL document CHEMBL3784966, “Approaching the active conformation of 1,3-diaminopyrimidine based covalent inhibitors of Bruton's tyrosine kinase for treatment of Rheumatoid arthritis” (Bioorg Med Chem Lett, 2016):

Biological target: Tyrosine-protein kinase BTK (Homo sapiens, UniProt Q06187)
Assay: Inhibition of BTK (unknown origin)

C=CC(=O)Nc1cccc(Nc2nc(Nc3ccc(OCCOC)cc3)ncc2F)c1 [SPEBRUTINIB]
IC50: 4.61 nM
